From patent US20230137927A1, “INTERFERON TAU AS ANTIVIRAL THERAPY” (priority 2020, published 2023) come the findings set out here.

One data set concerns ZIKV strain PRVABC59. The data set can be described thus: ZIKV plaque reduction assay in VERO cells. The data set is classed as cell-based, Zika virus. The note with it: 1 hr pre-incubation. For orientation: Plaques are areas of infected cells; plaque reduction assays count them against a control.
For another data set, the system named is ZIKV (ZIKA/PRVAB59). In words: Anti ZIKV CPE assay in Huh-7 cells.

“IFN-β: IFN-β used as the positive control of the ZIKV assays”: the “Inhibition (%)” value in the data set with ZIKV strain PRVABC59 (0.16 IU/ml) is given as 21.43%; in the data set on ZIKV strain PRVABC59 (0.8 IU/ml), 21.43%; with ZIKV strain PRVABC59 (4 IU/ml), 33.93%; in the data set on ZIKV strain PRVABC59 (20 IU/ml) it was 100%; in the data set with ZIKV strain PRVABC59 (100 IU/ml), 100%. The substance further registered a CC50 with Huh-7 cells greater than 2000 IU/ml. The “Average Activity(%)” value with ZIKV (ZIKA/PRVAB59) (0.03 IU/ml) is listed as 1.85%; in the data set on ZIKV (ZIKA/PRVAB59) (0.13 IU/ml) it was −6.80%; in the data set on ZIKV (ZIKA/PRVAB59) (0.64 IU/ml) it was 6.46%; with ZIKV (ZIKA/PRVAB59) (3.2 IU/ml), 27.59%; in the data set with ZIKV (ZIKA/PRVAB59) (16 IU/ml) it was 86.73%; with ZIKV (ZIKA/PRVAB59) (80 IU/ml) it was 106.71%. Moreover, the “Average Activity(%)” value is given as 106.29% in the data set with ZIKV (ZIKA/PRVAB59) (400 IU/ml) and 101.94% with ZIKV (ZIKA/PRVAB59) (2000 IU/ml). In addition, the EC50 in the data set on ZIKV (ZIKA/PRVAB59) (Huh-7 cells, positive control) came out at 5.39 IU/ml.
